# Molecular target: Sodium-dependent noradrenaline transporter (Homo sapiens) (UniProt P23975)
# Protein sequences, listed by entry. Tags and fused reporters are not part of them.
# UniProt P23975, whole entry: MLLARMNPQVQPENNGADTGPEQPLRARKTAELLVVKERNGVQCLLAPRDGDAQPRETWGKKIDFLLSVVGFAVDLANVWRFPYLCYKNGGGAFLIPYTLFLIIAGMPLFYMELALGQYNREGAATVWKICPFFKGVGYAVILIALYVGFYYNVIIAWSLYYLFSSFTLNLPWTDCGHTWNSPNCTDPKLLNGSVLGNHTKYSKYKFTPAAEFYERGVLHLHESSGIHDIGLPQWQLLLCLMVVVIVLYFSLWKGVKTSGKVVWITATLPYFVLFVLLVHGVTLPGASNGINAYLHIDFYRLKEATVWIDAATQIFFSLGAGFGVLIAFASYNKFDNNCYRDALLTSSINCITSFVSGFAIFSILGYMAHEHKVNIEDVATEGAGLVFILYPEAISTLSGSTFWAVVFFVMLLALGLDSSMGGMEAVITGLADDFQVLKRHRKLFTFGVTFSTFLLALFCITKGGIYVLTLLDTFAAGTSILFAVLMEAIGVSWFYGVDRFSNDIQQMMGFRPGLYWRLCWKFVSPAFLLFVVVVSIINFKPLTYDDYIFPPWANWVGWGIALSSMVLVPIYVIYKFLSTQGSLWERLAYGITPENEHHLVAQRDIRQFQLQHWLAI
# Assay: Displacement of [3H]-Nisoxetine from human NET expressed in HEK cell membrane at 10 uM by radioligand binding assay relative to control
structure (smiles),measurement,value
CCC(=O)N(c1ccc(Cl)c(Cl)c1)C1CCN(C(=O)[C@H](Cc2ccc(Cl)cc2)NC(=O)CNC(=O)[C@H]2Cc3ccccc3CN2C(=O)[C@@H](N)Cc2cc(C)c(O)c(C)c2)CC1,inhibition,< 50%

# Reference: ChEMBL document CHEMBL5053542, “C-terminal modified Enkephalin-like tetrapeptides with enhanced affinities at the kappa opioid receptor and monoamine transporters” (Bioorg Med Chem, 2021)
